Measured values published in PubChem BioAssay AID686971 (National Center for Advancing Translational Sciences (NCATS), 2013).
This is a selection; strong and weak results do not stand in their true shares. Some tests of the compounds listed are not included; inactive here does not mean inactive elsewhere. Inconclusive results are not listed. Calls of active or inactive are those of the source. The call rests on the fitted dose curve; in most records, active means well fitted cell-killing curve with a large enough effect; inconclusive means small, poorly fitted or top-dose-only effect, or effect the other way, or another doubt; inactive means no such curve, though single readings can be large or run the other way.

Assay: qHTS for induction of synthetic lethality in tumor cells producing 2HG: qHTS for the HT-1080-IDH1KD cell line;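 further: 0% = DMSO wells and -100% = cell-free medium wells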
Conditions: HT-1080 IDH1 knockdown viability, ATP luminescence, 48 h; at 46.1 µM (top of the series)
For `C=CCN1CCN(CCOC(=O)C(O)(c2ccccc2)c2ccccc2)CC1`, the activity, negative = toxicity was inactive: 0.233%. With `CC(C)N1C(=O)CC2(CCN(CCOC(=O)C(O)(c3ccccc3)c3ccccc3)CC2)C1=O` the activity, negative = toxicity was inactive: 5.45%.
